Source: PubChem BioAssay
Only some compounds are listed: those with a hit (about 0.39% of all), similar ones and a draw of the others.
CCT chaperon mod – High-Throughput Screening for Modulators of Cytosolic Chaperonin Activity; 360,000 tested, 0.3% active; purified chaperonin ATPase assay, HTRF ADP detection, 30 min; AID 651819, 2012; activity change, % (concentration not given with the values), hits read low; in the data active = activity change below about -30%
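TRiC (40 or 20 nM final, by batch activity) in 30 mM Tris pH 7.4, 100 mM KCl, 5 mM MgCl2, 1 mM DTT was treated with compound at 76 uM single dose, then 10 uM ATP, 30 min at 37 °C. ADP was read by HTRF Transcreener.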
Rango-impB inh – qHTS Assay for Inhibitors of Rango (Ran-regulated importin-beta cargo) - Importin beta complex formation; Importin subunit beta-1 (Homo sapiens), Q14974; Rango CFP/YFP FRET sensor + importin beta, 45 min; Potency, µM (doses to about 92.2 µM); 340,000 tested, 0.031% active; note: nearly all actives have a fitted effect of over 15% in size
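FRET biosensor Rango (snurportin 1 IBB between N-terminal EYFP and C-terminal Cerulean), 50 nM in PBS/1 mM DTT/0.02% Tween-20/0.1% BSA, preincubated 5 min RT with compound; 0.125 microM importin beta added, 45 min RT, CFP/YFP FRET ratio read.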
Rango release inh – qHTS Assay for Inhibitors of RanGTP induced Rango (Ran-regulated importin-beta cargo) - Importin beta complex dissociation; Potency, µM (highest dose often 46.1 µM); AID 540253, 2011; Biochemical FRET Rango-importin beta, RanGTP-induced dissociation; Snurportin-1 (Homo sapiens) + GTP-binding nuclear protein Ran (Homo sapiens) + Importin …; 340,000 tested, 0.071% active; note: nearly all actives have a fitted effect of over 45% in size
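FRET read at 45 min, room temperature: inhibitors block the CFP/YFP signal rise when RanGTP (0.6 uM Ran, 2 mM GTP, 0.2 uM RCC1) frees Rango (0.1 uM) from importin beta (0.25 uM). Pre-read after 5 min compound exposure flags interference.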
Mm-Cpn inhibitor – Inhibitors of TCP-1 ring complex (TRiC) of Methanococcus maripaludis (MmCpn): qHTS. AID 504842, 2011. 330,000 tested, 0.031% active. Chaperonin Mm-Cpn (Methanococcus maripaludis). purified Mm-Cpn ATPase, ADP Transcreener TR-FRET. Potency, µM (series often up to 76.9 µM), most hits filed as inhibitors; active = well fitted inhibition curve with a large enough effect; inconclusive = small, poorly fitted or top-dose-only effect; note: nearly all actives have a fitted effect of over 80% in size
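Eu-cryptate anti-ADP/ADP-d2 competition gives a ratio inversely related to ADP. Enzyme at 25 nM was pre-exposed to compound for 10 min, then given 10 uM ATP for 30 min, 37°C throughout.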
A number is an active result; n = inactive; u = inconclusive; x = no result. Unless noted, calls come from the whole dose curve.

By UniProt entry, the sequences of proteins in these tests, tags left out.
Importin subunit beta-1 (Homo sapiens), Q14974, UniProt Q14974, whole entry, looked up: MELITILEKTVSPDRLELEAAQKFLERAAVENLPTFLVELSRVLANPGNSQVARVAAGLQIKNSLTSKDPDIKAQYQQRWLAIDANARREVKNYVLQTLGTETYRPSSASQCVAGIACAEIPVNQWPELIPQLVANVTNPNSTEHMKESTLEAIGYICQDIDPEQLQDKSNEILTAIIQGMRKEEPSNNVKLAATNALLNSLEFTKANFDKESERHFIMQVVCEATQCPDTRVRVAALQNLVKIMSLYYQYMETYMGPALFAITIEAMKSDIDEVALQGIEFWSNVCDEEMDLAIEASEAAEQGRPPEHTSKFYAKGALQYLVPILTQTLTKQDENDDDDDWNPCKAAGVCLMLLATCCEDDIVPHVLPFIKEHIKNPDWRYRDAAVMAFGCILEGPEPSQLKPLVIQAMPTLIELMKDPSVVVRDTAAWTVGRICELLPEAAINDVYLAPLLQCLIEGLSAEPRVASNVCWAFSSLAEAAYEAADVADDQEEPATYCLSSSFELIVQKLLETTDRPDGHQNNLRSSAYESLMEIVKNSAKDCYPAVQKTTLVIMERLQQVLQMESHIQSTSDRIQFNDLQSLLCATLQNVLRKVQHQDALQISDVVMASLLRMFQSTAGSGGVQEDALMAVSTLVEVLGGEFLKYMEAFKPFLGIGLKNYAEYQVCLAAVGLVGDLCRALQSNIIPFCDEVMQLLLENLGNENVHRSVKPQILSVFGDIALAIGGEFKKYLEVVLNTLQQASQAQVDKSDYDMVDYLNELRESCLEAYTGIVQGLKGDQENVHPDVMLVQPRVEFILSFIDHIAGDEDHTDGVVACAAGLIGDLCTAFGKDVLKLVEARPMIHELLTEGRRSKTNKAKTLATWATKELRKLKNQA

SMILES	CCT chaperon mod	Rango-impB inh	Rango release inh	Mm-Cpn inhibitor
O[C@H]1CN(CC2CCCCC2)[C@@H](c2ccc(Cl)cc2)C[C@@H]1n1cc(C2CC2)nn1	n	x	x	x
CN(C(=O)COc1cc(=O)n(C)c2ccccc12)c1cccc(Cl)c1	n	n	n	n
CCN(C(=O)COc1cc(=O)n(C)c2ccccc12)c1cccc(Cl)c1	-54.7	n	n	n
CC(=O)NCc1cc(Cl)c2cccnc2c1O	x	x	x	n
COc1ccc(CNCc2ccncc2)cc1OC	-65.1	n	n	n
COc1ccc(CNCc2ccc(C(F)(F)F)cc2)cc1OC	n	n	n	n
COc1cc(/C=C2\SC(=S)N(NS(=O)(=O)c3ccccc3)C2=O)ccc1O	n	u	n	n
COc1cc(/C=C2\SC(=S)N(NS(=O)(=O)c3ccc(C)cc3)C2=O)ccc1O	n	41.1µM	u	n
CCOc1cc(/C=C2\SC(=S)N(NS(=O)(=O)c3ccc(C)cc3)C2=O)ccc1O	n	23.1µM	n	x
O=C(CNC(=O)c1ccco1)OCc1ccccc1F	n	n	n	n
O=C1NC(=O)C(c2ccccc2)(c2ccc(Cl)cc2Cl)N1 (stereo unspecified)	n	n	n	x
Cc1ccc([C@H]2C[C@@H](n3cc(COC(=O)c4ccccc4)nn3)[C@H](O)CN2C(=O)C2CCCCC2)cc1	n	x	x	x
O=C(CSc1ncccn1)N1CCc2ccccc2C1	n	n	n	n
O=C(CNCc1ccccn1)N1CCc2ccccc2C1	-43.6	n	n	n
COc1cc(CCC(=O)NCc2ccc(S(N)(=O)=O)cc2)cc(OC)c1OC	-93.6	n	n	n
COc1cc(CCC(=O)NCc2ccc(F)cc2)cc(OC)c1OC	n	n	n	n
C[C@H](CO)N1C[C@H](C)[C@@H](CN(C)S(=O)(=O)c2cccs2)Oc2ccc(NS(=O)(=O)c3ccccc3)cc2C1=O	n	n	n	n
COc1cccc(Nc2c(F)c(OC)c(F)c(F)c2C(=O)O)c1	n	n	n	n
COc1c(F)c(F)c(C(=O)O)c(Nc2ccccc2)c1F	-78.3	n	n	n
CNC(=O)c1ccc(NC(=O)c2ccccc2OCc2c(C)noc2C)cc1	n	x	x	x
Cc1ccc(COC(=O)c2nn(C)c(=O)c3ccccc23)cc1	n	n	n	n
Cn1nc(C(=O)OCc2ccc(F)cc2)c2ccccc2c1=O	-37.4	n	n	n
O=C(O)c1c(Cl)c(Cl)c(Cl)c(Cl)c1C(=O)OCC1CCCO1 (stereo unspecified)	n	x	x	x
COc1cc(NC(=O)c2cccs2)c(OC)cc1NC(=O)c1cccs1	n	u	18.4µM	x
O=[N+]([O-])c1ccccc1Nc1cccc(F)c1	n	n	n	x
SMILES	CCT chaperon mod	Rango-impB inh	Rango release inh	Mm-Cpn inhibitor
NS(=O)(=O)c1ccc(CCNC(=O)c2cc(-c3ccc(Br)cc3)nc3ccccc23)cc1	n	n	n	u
NS(=O)(=O)c1ccc(CCNC(=O)c2cc(-c3ccccn3)nc3ccc(Br)cc23)cc1	-31.8	n	n	u
COc1ccc(C2C(C#N)=C(N)Oc3c2oc(CO)cc3=O)c(OC)c1OC (stereo unspecified)	-34.4	n	n	n
CCOC(=O)c1ccc(N2C(=O)CC(N3CCC(Nc4ccc(F)cc4)CC3)C2=O)cc1 (stereo unspecified)	-64.6	n	n	n
CC1(C(=O)NS(=O)(=O)c2ccc(Cl)cc2)CCN1C(=O)C1CC1 (stereo unspecified)	n	x	x	x
CCCCC(=O)N(C)c1c(C)nc2ccc(C(=O)N(C)CCN(C)C)cn12	n	x	x	x
Cc1cc(SCC(=O)NCC2CCCO2)nc2ccccc12 (stereo unspecified)	n	36.6µM	n	n
COCCNC(=O)c1cc2cc(Cl)cc(Cl)c2oc1=O	n	n	n	n
O=C(NCCO)c1cc2cc(Cl)cc(Cl)c2oc1=O	n	u	18.4µM	n
CC(=O)Nc1cc(-c2cccc(C(=O)NCCN(C)C)c2)cn2c(-c3ccccc3)cnc12	-38.1	x	x	x
COc1ccc(-c2cnc3c(NC(C)=O)cc(-c4ccc(C(=O)NC5CC5)cc4)cn23)cc1OC	n	x	x	x
COc1cccc(-c2cnc3c(NC(C)=O)cc(-c4ccc(C(=O)NC5CC5)cc4)cn23)c1	-35.3	x	x	x
COc1cccc(-c2cnc3c(NC=O)cc(-c4ccc(OC)cc4OC)cn23)c1	-34.9	x	x	x
O=C(C[C@H]1C/C=C\C[C@H](NC(=O)OCC2c3ccccc3-c3ccccc32)C(=O)O[C@H](c2ccccc2)CNC1=O)N[C@H](CO)Cc1ccccc1	n	n	n	n
CN(C)c1ccc(/C=N/NC(=O)COc2ccccc2)cc1	n	n	n	n
CCCCCC1CC1C(=O)N/N=C/c1ccc(N(C)C)cc1 (stereo unspecified)	n	u	8.2µM	n
CCC(C)c1ccc(NC(=S)N2CCN(C(=O)C3CCCO3)CC2)cc1 (stereo unspecified)	-74.0	n	n	n
CCC(C)c1ccc(NC(=O)N2CCN(C(=O)C3CCCO3)CC2)cc1 (stereo unspecified)	n	n	n	n
CCOC(=O)C(=CNc1cccc(C)c1C)C(=O)OCC	-122.3	n	n	n
N#Cc1nc(-c2cccc3ccccc23)oc1NCC#CCOC(=O)c1cccs1	x	x	x	n
O=C(Nc1c(-c2ccc3c(c2)OCO3)[nH][nH]c1=O)c1ccccc1	n	x	x	x
C=CCn1ccc(O)c(Cc2ccc(Cl)cc2)c1=O	n	n	n	n
COc1ccc([N+](=O)[O-])cc1NC(=O)CCCOc1ccccc1	n	n	n	n
COc1ccc(OCCCC(=O)Nc2cc([N+](=O)[O-])ccc2C)cc1	-43.9	n	n	n
OC[C@H]1OC(O)[C@H](O)[C@@H]1O (stereo partly specified)	n	u	n	n
SMILES	CCT chaperon mod	Rango-impB inh	Rango release inh	Mm-Cpn inhibitor
N#Cc1ccc(OCc2c(-c3ccccc3)nnn2CC(=O)O)cc1	n	x	x	x
Cc1cc[n+](CC(=O)c2ccc3c(c2)OCCO3)cc1	n	n	n	n
O=C(COC(=O)C(O)c1ccccc1)c1ccc2c(c1)OCCO2 (stereo unspecified)	-38.7	n	n	n
O=C(C[n+]1ccc(/C=C/c2ccccc2)cc1)c1ccc2c(c1)OCCO2	-66.3	u	u	n
O=C(COC(=O)c1ccc(Cl)nc1)c1ccc2c(c1)OCCO2	n	n	n	n
Cc1cc(NC(=O)CN2C(=O)/C(=C/c3ccc(C(C)C)cc3)SC2=S)no1	n	x	x	x
O=C(CNC(=O)c1ccc(N2CCCC2=O)cc1)Nc1ccc(F)c(F)c1F	n	n	n	n
CCN(CC)C(=O)Cn1cc(C(=O)C(=O)N(C)C2CCN(C)CC2)c2ccccc21	-89.6	n	n	n
c1ccc2[nH]c(NC3=NCCC3)nc2c1	-97.6	n	n	n
c1ccc2[nH]c(NN=C3CCCCCC3)nc2c1	n	n	n	n
O=C(COC(=O)CN1C(=O)c2ccccc2C1=O)NC1CCCC1	n	n	n	n
